This test has as its target human α7V274T nAChR (Homo sapiens, UniProt P36544, V274T). Put plainly: Agonist concentration-response, two-electrode voltage-clamp in Xenopus laevis oocytes. A general note: In two-electrode clamp one electrode senses voltage and the other passes current.

By UniProt entry, the sequences of proteins in these tests, tags left out. Residues count along the entry.
UniProt P36544, 23-502 V274T: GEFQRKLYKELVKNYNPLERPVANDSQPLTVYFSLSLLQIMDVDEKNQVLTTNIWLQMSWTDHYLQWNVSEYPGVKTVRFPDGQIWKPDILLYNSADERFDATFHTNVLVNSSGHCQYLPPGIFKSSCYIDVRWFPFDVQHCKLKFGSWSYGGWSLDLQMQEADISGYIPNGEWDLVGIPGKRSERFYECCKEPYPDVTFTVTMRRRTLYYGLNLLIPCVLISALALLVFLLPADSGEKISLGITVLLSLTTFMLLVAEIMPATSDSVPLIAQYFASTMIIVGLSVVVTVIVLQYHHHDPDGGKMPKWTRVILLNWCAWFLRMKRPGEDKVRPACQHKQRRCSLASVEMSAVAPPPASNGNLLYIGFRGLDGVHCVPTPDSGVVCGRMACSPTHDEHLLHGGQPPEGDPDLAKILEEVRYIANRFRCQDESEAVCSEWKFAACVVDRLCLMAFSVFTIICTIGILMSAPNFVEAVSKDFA

For `Cc1ncccc1OC[C@@H]1CCCN1` [ABT-089], the “agonist type” value was “partial agonist”. Where the note is “Hill equation fit”, this compound showed a Hill coefficient of 2.3±0.4.

The term Hill coefficient denotes the slope factor of the fitted curve.

(Values after patent US6683157B2, “Variant human α7 acetylcholine receptor subunit, and methods of production and use thereof” (priority 1996, dated 2004).)
